# Antibody variant affinities, Ab-14 light chain, assay 1

Data: MIT Lincoln Laboratory AlphaSeq set, Engelhart et al. 2022, doi:10.1038/s41597-022-01779-4, as distributed in FLAb.

All variants were tested on one target, the spike HR2 peptide PDVDLGDISGINAS (SARS-CoV-2).

Each scFv is VH, a (GGGGS)3 linker, VL, as in the parent Ab-14, and differs from it in the CDRs of the light chain only.
VH: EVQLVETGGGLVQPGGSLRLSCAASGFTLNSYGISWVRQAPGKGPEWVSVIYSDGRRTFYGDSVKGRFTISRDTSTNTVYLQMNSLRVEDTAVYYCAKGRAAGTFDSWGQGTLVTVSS
VL: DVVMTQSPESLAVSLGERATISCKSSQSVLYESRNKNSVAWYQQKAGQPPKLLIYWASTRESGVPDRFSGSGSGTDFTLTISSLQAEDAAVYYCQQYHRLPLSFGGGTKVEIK

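Phage display of a naive human antibody library on the peptide gave the parent. The library (AAYL50) carries one to three amino acid substitutions per variant, with no insertions or deletions. AlphaSeq pools MATa yeast showing the antibodies with MATalpha yeast showing the peptide. Pairs that bind mate more often; barcode pairs of the diploids are counted by sequencing. Scores were corrected for input abundance and mapped to Kd with protein pairs of known affinity run in the same pool. The assay was run in three technical replicates.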

Substitutions are numbered in sequence along the VL above, starting at 1 (not Kabat). All variants listed here change S58 of the VL, counted from its first residue. Each Kd is an estimate from the mating assay, the geometric mean of the replicates in which the pair was seen; lower is stronger. Where no diploid with the target was found in any replicate, the entry reads "nd": below detection, most likely a poor binder, though not proof of it. Order: sorted from the lowest average up, undetected variants last. Nonspecific signal, from three strains lacking the peptide, appeared in 18% of pairings of library AAYL50, centred on 15 µM (5% of these signals below 970 nM); values are not corrected for it. In this assay the parent's reference entry averaged 4.4 nM; its copy inside this library read 48 nM.

With Y31C+W56G+S58Y the result was 690 pM (3 of 3 replicates). The variant W56A+S58A+T59M gave 2.8 nM (3 of 3 replicates). The variant K24N+V29M+S58D gave 12 nM (3 of 3 replicates). The variant K36Q+S58G+E61D showed 33 nM (3 of 3 replicates). For S26P+S58A, the assay gave 38 nM (3 of 3 replicates). For L30H+S58G+L102F, the assay gave 51 nM (3 of 3 replicates).

For S58Y+T59Y+R99V, the assay gave 63 nM (3 of 3 replicates). For S58A+H98Q+R99A, the assay gave 84 nM (3 of 3 replicates). For N35F+S58Y, the assay gave 92 nM (3 of 3 replicates). The variant S58K+T59V+H98K gave 250 nM (3 of 3 replicates). For Q27K+W56N+S58K, the assay gave 260 nM (3 of 3 replicates). For S28M+K36V+S58C, the assay gave 1.2 µM (1 of 3 replicates).

With S58P+E61Y+Q96E the result was 1.3 µM (1 of 3 replicates). For S58T+T59K+R60H, the assay gave 2.1 µM (3 of 3 replicates). With S25M+S58W+Y97R the result was 8.0 µM (2 of 3 replicates). With K24T+S58G+Q96Y the result was 9.3 µM (1 of 3 replicates). With S38M+S58E+Y97F the result was 11 µM (2 of 3 replicates). With S58K the result was 11 µM (2 of 3 replicates).

With S26N+V39Q+S58Q the result was 26 µM (2 of 3 replicates). With S26D+S58W+R60T the result was 27 µM (3 of 3 replicates). With R34D+S58Q+Q95N the result was 39 µM (1 of 3 replicates). With A40D+S58N+L102D the result was 220 µM (3 of 3 replicates). The variant S26N+A40D+S58G gave nd (0 of 3 replicates). For S58R+R99N+L102Q, the assay gave nd (0 of 3 replicates).

For A57Y+S58G+L102F, the assay gave nd (0 of 3 replicates). With Y31H+A40W+S58P the result was nd (0 of 3 replicates). The variant S28D+S58A+R60C gave nd (0 of 3 replicates). The variant S28V+S58K+Q96Y gave nd (0 of 3 replicates). With S33Q+R34S+S58P the result was nd (0 of 3 replicates). With A57P+S58Y+P101H the result was nd (0 of 3 replicates).

With E32C+S58F+H98K the result was nd (0 of 3 replicates). The variant V39F+S58V+S103F gave nd (0 of 3 replicates). For K24A+S58P, the assay gave nd (0 of 3 replicates). For S58A+R60H+L100K, the assay gave nd (0 of 3 replicates). For V39S+S58I+T59G, the assay gave nd (0 of 3 replicates). The variant S26F+S38C+S58C gave nd (0 of 3 replicates).

With L30Q+S58K+Y97P the result was nd (0 of 3 replicates).

The first 3 variants above that were never detected:

The variant S26N+A40D+S58G showed nd (0 of 3 replicates).
The variant S58R+R99N+L102Q showed nd (0 of 3 replicates).
The variant A57Y+S58G+L102F showed nd (0 of 3 replicates).